By UniProt entry, the sequences of proteins in these tests, tags left out.
Protein disulfide-isomerase A6 (Homo sapiens), Q15084, UniProt Q15084, whole entry, looked up: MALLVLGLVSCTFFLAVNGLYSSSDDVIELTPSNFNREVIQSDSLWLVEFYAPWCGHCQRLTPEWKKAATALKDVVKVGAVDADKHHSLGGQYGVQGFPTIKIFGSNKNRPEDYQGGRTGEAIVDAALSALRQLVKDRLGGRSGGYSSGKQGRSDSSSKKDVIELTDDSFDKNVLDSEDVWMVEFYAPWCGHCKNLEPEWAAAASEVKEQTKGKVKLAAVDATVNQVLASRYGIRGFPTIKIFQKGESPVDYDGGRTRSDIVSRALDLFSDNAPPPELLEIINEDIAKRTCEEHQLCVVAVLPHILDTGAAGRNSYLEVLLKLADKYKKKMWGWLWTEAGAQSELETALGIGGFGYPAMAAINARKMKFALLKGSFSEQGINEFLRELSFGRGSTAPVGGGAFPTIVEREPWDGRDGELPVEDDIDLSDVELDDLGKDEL

# UUG fidelity = yeast start codon fidelity modulation. S. cerevisiae UUG-firefly luciferase reporter, luminescence/redox ratio. activity score, % at 18.7 µM. 0.13% of 350,000 active;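 active = replicate mean at a twofold rise or more, about +100% in these data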;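 also: firefly luciferase made from a UUG start codon reports start codon fidelity; reporter light over untreated wells divided by growth signal over untreated wells; some hits fall short of that in this replicate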
# PglD inh = C. jejuni PglD acetyltransferase inhibitors, primary screen, biochemical, DTNB colorimetric, single point; inhibition, % at 12.5 µM; 0.098% of 360,000 active; purified PglD enzyme, DTNB colorimetric CoA detection; AID 602405, 2012; UDP-N-acetylbacillosamine N-acetyltransferase PglD (Campylobacter jejuni); in the data active = inhibition above about 16%, passing the limit was not always enough
# ARNT TACC3 PPI = disruptors of ARNT/TACC3 protein interaction, primary screen, biochemical, AlphaScreen, single concentration. Transforming acidic coiled-coil-containing protein 3 (Homo sapiens), Q9Y6A5. AlphaScreen His-ARNT PAS-B/GST-TACC3 binding, luminescence; TACC3 fragment carries E629A point mutation. inhibition, % at 9.99 µM. 0.66% of 390,000 active;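 active = mean inhibition of replicates at least 50% and at least half of replicates each reaching 50%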;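 note: 0% = complete ARNT plus TACC3 wells and 100% = ARNT alone without TACC3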
# FGF22 binding = binders of human FGF22 protein, primary screen, FGF22 synaptogenesis inhibitor project, biophysical, thermal shift, single point; recombinant FGF22 thermal shift, SYPRO orange fluorescence; percent of sucrose octasulfate shift, DMSO zero; activity (Tm shift, normalised), % at 9.99 µM; 1.5% of 340,000 active;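 active = mean Tm shift, scaled 0 neutral to 100 positive control, at about 1.3% or above, every replicate too, limit read from the data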
# PDI inh = inhibitors of human PDI, primary screen, biochemical, turbidity, single point, plate reader. Protein disulfide-isomerase (Homo sapiens), P07237. PDI insulin aggregation turbidity, A650, 90 min. inhibition, % at 10 µM. 0.052% of 350,000 active. AID 588391, 2011;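 active = mean inhibition across replicates of 30% or more, whatever share of single replicates reach that level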
# ERp5 inh = inhibitors of ERp5-driven insulin aggregation, primary screen, biochemical, turbidity, absorbance 650 nm, single point. Protein disulfide-isomerase A6 (Homo sapiens), Q15084. 0.05% of 350,000 active. inhibition, % at 9.99 µM. 90 min;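 active = mean replicate inhibition above about 25%, with every replicate also reaching it, limit read from the data, passing the limit was not always enough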
# * marks the source's active call; other numbers are inactive results; · = no result. This is a sample that favours compounds with a hit; in the whole collection about 1.9% have one here.
item	smiles	UUG fidelity	PglD inh	ARNT TACC3 PPI
1	CC(C)(C)c1csc(N/N=C/c2cccnc2)n1	-18	-3	0
2	C(=N\Nc1nc(-c2ccccc2)cs1)/c1cccnc1	1	-2	-2
3	CO[C@@H]1CN(C)C(=O)c2cc(NC(=O)C3CC3)ccc2OC[C@H](C)NC[C@@H]1C	-5	1	0
4	CC(=O)Nc1ccc(SC(Sc2ccc(NC(C)=O)cc2)c2ccccc2)cc1	-8	-6	-2
5	CC(=O)Nc1ccc(NC(=S)Nc2ccccc2)cc1	-23	2	2
6	O=C(N/N=C/c1ccccc1O)C(=O)N1CCCCCC1	-13	1	67*
7	COc1cccc(/C=N/NC(=O)C(=O)N2CCCC2)c1O	-15	-1	68*
8	O=C(NN=Cc1ccccc1O)C(O)c1ccccc1 (stereo not given)	-7	6	43*

item	FGF22 binding	PDI inh	ERp5 inh
1	44*	2	0
2	·	6	·
3	0	·	0
4	1.4*	-7	-16
5	·	-4	·
6	0	1	4
7	0	2	0
8	1	5	-3

item	smiles	UUG fidelity	PglD inh	ARNT TACC3 PPI
9	CCCC(=O)Nc1ccc2c(c1)OC[C@@H](C)N(C(=O)CC1CC1)C[C@@H](C)[C@@H](OC)CN(C)C2=O	11	-2	-1
10	Cc1ccccc1CN(C)C[C@H]1OCc2cnnn2CCCC(=O)N([C@H](C)CO)C[C@@H]1C	-13	-1	-4
11	CN1C(=O)c2ccccc2Cc2c(NCc3ccccc3)ncnc21	-4	5	·
12	CC(=O)c1ccc(NC(=S)N2CCCCCC2)cc1	-13	0	-2
13	CC(=O)c1ccc(N=C2SCCCN2C(=O)C2CCCC2)cc1	·	·	-2
14	CC(=O)N(C)C[C@H]1Oc2ncc(-c3ccc(C(=O)N(C)C)cc3)cc2C(=O)N([C@@H](C)CO)C[C@@H]1C	27	4	10
15	O=C(O)COc1ccc(NC(=O)c2ccc(NC(=O)c3ccco3)cc2)cc1	-12	-2	5
16	O=C(/C=C\c1ccco1)c1ccc(NC(=O)c2ccco2)cc1	·	·	-6

item	FGF22 binding	PDI inh	ERp5 inh
9	0	·	2
10	0	·	4
11	43*	-10	1
12	0	4	0
13	43*	-3	-12
14	0	·	6
15	44*	21	0
16	43*	-7	-2

item	smiles	UUG fidelity	PglD inh	ARNT TACC3 PPI
17	CN(c1ccc(OCC(=O)NCc2cccnc2)cc1)S(=O)(=O)c1ccc(Cl)cc1	·	·	-2
18	O=C(C[C@@H]1C[C@@H]2c3cc(NC(=O)Nc4ccccc4)ccc3O[C@@H]2[C@H](CO)O1)NCC(F)(F)F	-3	-2	-6
19	CCOc1cccc2sc(N(CCCN(C)C)C(=O)c3ccc(S(=O)(=O)N4CCc5ccccc5C4)cc3)nc12	5	2	8
20	CCOc1cccc2sc(N(CCCN(C)C)C(=O)c3ccc(S(=O)(=O)N(C)c4ccccc4)cc3)nc12	·	·	11
21	CN1C(=O)CS(=O)(=O)C1c1ccccc1 (stereo not given)	-18	2	-7
22	COc1cc(NS(=O)(=O)c2ccc(C)cc2)c2ncccc2c1	·	·	6
23	Cc1ccc(S(=O)(=O)Nc2cccc3cccnc23)cc1	-30	-1	50*
24	Cc1nn(-c2ccc3ccccc3c2)c(=O)c2ccccc12	-14	-10	-5

item	FGF22 binding	PDI inh	ERp5 inh
17	43*	-5	-3
18	·	·	-3
19	0	-11	1
20	44*	1	7
21	0	·	1
22	·	6	·
23	·	16	·
24	44*	-5	3

item	smiles	UUG fidelity	PglD inh	ARNT TACC3 PPI
25	CCCN(C)C[C@@H]1OCCCC[C@@H](C)Oc2ccc(NC(=O)Nc3ccc(F)cc3)cc2C(=O)N([C@H](C)CO)C[C@H]1C	40	-2	·
26	CCCC(=O)N1CCC2(CC1)CN(S(C)(=O)=O)[C@H](CO)c1c2c2ccc(OC)cc2n1C	·	·	·
27	CCc1ccccc1NC(=S)NC1CC2CCC(C1)N2Cc1ccc(F)cc1 (stereo not given)	·	·	7
28	COc1ccc(CN(C)C[C@H]2OCCCC[C@@H](C)Oc3ccc(NC(=O)Nc4c(C)noc4C)cc3C(=O)N([C@@H](C)CO)C[C@H]2C)cc1	14	4	1
29	CC(C)NC(=O)N(C)C[C@@H]1Oc2ccc(NC(=O)Cc3cn(C)c4ccccc34)cc2C(=O)N([C@H](C)CO)C[C@H]1C	9	26*	2
30	C[C@H](CO)N1C[C@H](C)[C@H](CN(C)C(=O)Nc2ccc3c(c2)OCO3)Oc2ccc(NS(=O)(=O)c3ccccc3)cc2C1=O	12	2	0
31	C[C@H]1CN([C@@H](C)CO)C(=O)c2cccc(NS(C)(=O)=O)c2O[C@H]1CN(C)C(=O)Nc1ccc2c(c1)OCO2	28	-27	3
32	C[C@@H]1CN([C@@H](C)CO)C(=O)c2cccc(NS(C)(=O)=O)c2O[C@@H]1CN(C)C(=O)Nc1ccc2c(c1)OCO2	35	-25	active

item	FGF22 binding	PDI inh	ERp5 inh
25	0	·	-2
26	0	·	·
27	1.5*	9	4
28	1	·	-4
29	0	·	-4
30	0	·	2
31	0	·	5
32	0	·	2

# Arranged by the number under ERp5 inh (ascending): 3 of the compounds above
No.	SMILES	ERp5 inh
29	CC(C)NC(=O)N(C)C[C@@H]1Oc2ccc(NC(=O)Cc3cn(C)c4ccccc34)cc2C(=O)N([C@H](C)CO)C[C@H]1C	-4
32	C[C@@H]1CN([C@@H](C)CO)C(=O)c2cccc(NS(C)(=O)=O)c2O[C@@H]1CN(C)C(=O)Nc1ccc2c(c1)OCO2	2
31	C[C@H]1CN([C@@H](C)CO)C(=O)c2cccc(NS(C)(=O)=O)c2O[C@H]1CN(C)C(=O)Nc1ccc2c(c1)OCO2	5

# Look-ups from the list:
# For ERp5 inh, no. 28 reads -4
# For UUG fidelity, no. 29 reads 9

# (more compounds)
item	smiles	UUG fidelity	PglD inh	ARNT TACC3 PPI
33	C[C@@H]1CN([C@@H](C)CO)C(=O)c2cc(NS(=O)(=O)c3ccccc3)ccc2O[C@H]1CN(C)C(=O)Nc1ccc2c(c1)OCO2	6	2	3
34	CC(C)NC(=O)N(C)C[C@@H]1Oc2ccc(NC(=O)Cc3cn(C)c4ccccc34)cc2C(=O)N([C@@H](C)CO)C[C@@H]1C	1	3	-13
35	COCC(=O)N1[C@@H](CO)[C@@H](c2ccc(-c3cccc(F)c3)cc2)C12CN(C(=O)C1CC1)C2	·	·	·
36	C[C@H](CO)N1C[C@H](C)[C@H](CN(C)Cc2ccc(C(F)(F)F)cc2)Oc2ccc(NC(=O)Nc3ccc(C(F)(F)F)cc3)cc2CC1=O	-7	1	11
37	Cc1ccc(/C=C/C(=O)O)cc1S(=O)(=O)NCc1ccco1	9	-1	-5
38	O=C(O)c1ccccc1C(=O)OC1CCCC2CCCC21 (stereo not given)	·	·	-1
39	CC1C2CCC(C2)C1OC(=O)c1ccccc1C(=O)O (stereo not given)	·	·	·
40	O=C(O)c1ccccc1N1C(=O)C2C3CCC(C3)C2C1=O (stereo not given)	·	·	-10
41	CN(C)C(=O)C[C@@H]1CC[C@@H]2[C@H](COC[C@H](O)CN2Cc2ccc(C(F)(F)F)cc2)O1	3	2	-10
42	COc1cccc(CNC(=O)C[C@@H]2C=C[C@@H](NC(C)=O)[C@H](CO)O2)c1	-12	0	2

item	FGF22 binding	PDI inh	ERp5 inh
33	1	·	58*
34	0	·	-3
35	0	·	-1
36	0	·	-6
37	43*	-18	-11
38	43*	5	-2
39	44*	4	-3
40	0	0	-1
41	0	·	-4
42	0	·	-1

# PglD inh, hit marks shown above
no.	compound	UUG fidelity	PglD inh	ARNT TACC3 PPI	PDI inh	ERp5 inh
29	CC(C)NC(=O)N(C)C[C@@H]1Oc2ccc(NC(=O)Cc3cn(C)c4ccccc34)cc2C(=O)N([C@H](C)CO)C[C@H]1C	9	26*	2	·	-4
